The NIST ThermoML archive (doi:10.1016/j.jct.2012.01.019)

Experiment: activity coefficient (dimensionless); of the first substance listed, at infinite dilution; xn = mol fraction of the nth substance listed
Conditions: 101 kPa, Liquid, Chromatography, x1 = 0

CCCCOCCCC [dibutyl ether] + COCC[N+]1(C)CCCCC1.O=S(=O)([N-]S(=O)(=O)C(F)(F)F)C(F)(F)F
Conditions	activity coefficient
318.15 K	13.9
328.15 K	13.2
338.15 K	12.5
348.15 K	11.8
358.15 K	11.3
368.15 K	10.9
